Results: patent US6515022B2, “Use of inhaled retinoids in the treatment of lung diseases” (Sloan-Kettering Institute for Cancer Research, priority 1996, dated 2003)
≈ marks a conversion by molar mass, not a printed value.

Key:
[1] = solvent HCFC-123 (2,2-dichloro-1,1,1-trifluoroethane)
physchem = conditions: organic solvent or mixture

In the case of `CC1=C(/C=C/C(C)=C/C=C/C(C)=C/C(=O)O)C(C)(C)CCC1` [all-trans retinoic acid], the “Maximum Solubility” value [1] is reported as “˜2 mg/ml”, the solubility (physchem; 1,1,2-trichlorofluoroethane) is reported as ~100 µg/mL (≈ 0.333 mM) and the solubility (physchem; HCFC-123 (2,2-dichloro-1,1,1-trifluoroethane), thermodynamic from solid) is reported as 2000 µg/mL (≈ 6.66 mM).
